Assay outcomes (PubChem)
An excerpt weighted towards active compounds, which were near 2.2% of everything screened.
PDI turbidity = blocks human protein disulfide isomerase activity. PDI insulin aggregation turbidity, A650, 90 min. inhibition, % at 10 µM. hit rate 0.052% among 350,000. P07237;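 active = mean inhibition across replicates of 30% or more, whatever share of single replicates reach that level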
ERp5 block = blocks human ERp5 reductase activity on insulin; Q15084; ERp5 insulin aggregation, absorbance 650 nm, 90 min; inhibition, % at 9.99 µM; hit rate 0.05% among 350,000;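 active = mean replicate inhibition above about 25%, with every replicate also reaching it, limit read from the data, passing the limit was not always enough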
S100A4 inh HTS = S100A4-myosin IIA interaction inhibition. P26447. S100A4/TAMRA-MyoIIA peptide fluorescence polarization. inhibition, % at 10.7 µM. hit rate 0.14% among 360,000;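 active = mean inhibition of at least 70% across replicates, with every replicate also reaching that level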
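Material: S100A4 monomer protein | Medium: HEPES pH 7.2 with CaCl2, KCl, NaCl, DTT, Triton | Reagent: Labelled myosin peptide probe, 5 nM | Doses: One dose per compound | Times: 5 min incubation before reading | Benchmarks: Neutral control DMSO, positive control TFP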
UUG fidelity = modulators of yeast start codon fidelity, primary screen, whole organism, S. cerevisiae, single point, plate reader; S. cerevisiae UUG-firefly luciferase reporter, luminescence/redox ratio; activity score, % at 18.7 µM; actives 0.13% (n = 350,000); AID 602363, 2012;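 active = replicate mean at a twofold rise or more, about +100% in these data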;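 also: firefly luciferase made from a UUG start codon reports start codon fidelity; reporter light over untreated wells divided by growth signal over untreated wells; some hits fall short of that in this replicate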
FGF22 binding = shifts melting point of recombinant human FGF22; activity (Tm shift, normalised), % at 9.99 µM; Q9HCT0; recombinant FGF22 thermal shift, SYPRO orange fluorescence; percent of sucrose octasulfate shift, DMSO zero; AID 651658; hit rate 1.5% among 340,000;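 active = mean Tm shift, scaled 0 neutral to 100 positive control, at about 1.3% or above, every replicate too, limit read from the data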
SIRT5 block = sirtuin-5 (human) deacylase inhibition | hit rate 1.1% among 330,000 | AID 652115 | inhibition, % at 15 µM | Q9NXA8 | Purified SirT5, succinyl-peptide AMC, trypsin-coupled fluorescence; in the data active = inhibition above about 15%
Large screens that a line does not name were inactive.

C=CCOC(=O)[C@@H]1[C@H]2C(=O)O[C@H](c3ccccc3)[C@H](c3ccccc3)N2[C@H](c2ccc(OCCOC(=O)[C@@H]3C[C@@H]4C(=O)N[C@@H](Cc5ccccc5)C(=O)N4[C@@H]3c3ccc(O)cc3)cc2)[C@@]12C(=O)Nc1ccc(I)cc12	SIRT5 block 19 (no result: PDI turbidity)
O=C(C1=C[C@@H](c2ccc3c(c2)OCO3)C[C@@H](OCc2ccc(CO)cc2)O1)N1CCCCCCC1	none (no result: PDI turbidity, UUG fidelity)
COCC(=O)Nc1ccc2c(c1)C(=O)N(C)[C@H]1CC[C@H](CC(=O)NC3CCCC3)O[C@@H]1CO2	none (no result: PDI turbidity, ERp5 block, S100A4 inh HTS, SIRT5 block)
O=C(Oc1ccc2c(c1)OCO2)C12CC3CC(CC(C3)C1)C2	none (no result: UUG fidelity)
O=C(Oc1ccc(O)cc1)C12CC3CC(CC(C3)C1)C2	PDI turbidity 65 (no result: UUG fidelity)
Cc1ccc(S(=O)(=O)Nc2ccc3c(c2)C(=O)N([C@H](C)CO)C[C@H](C)[C@@H](CN(C)S(=O)(=O)c2ccc(Cl)cc2)OCCCC[C@H](C)O3)cc1	FGF22 binding 31 (no result: PDI turbidity, ERp5 block, S100A4 inh HTS, SIRT5 block)
Cc1ccc(S(=O)(=O)N(C)C[C@H]2OCCCC[C@H](C)Oc3ccc(NS(=O)(=O)c4ccc(Cl)cc4)cc3C(=O)N([C@@H](C)CO)C[C@@H]2C)cc1	SIRT5 block 24 (no result: PDI turbidity)
C[C@H](CO)N1C[C@H](C)[C@H](CN(C)S(=O)(=O)c2ccc(Cl)cc2)OCCCC[C@H](C)Oc2ccc(N(C)C)cc2C1=O	none (no result: PDI turbidity)
Cc1ccc(S(=O)(=O)N(C)C[C@@H]2OCCCC[C@H](C)Oc3ccc(NS(=O)(=O)c4ccc(Cl)cc4)cc3C(=O)N([C@@H](C)CO)C[C@H]2C)cc1	SIRT5 block 22 (no result: PDI turbidity)
C[C@@H]1CCCCO[C@H](CN(C)S(=O)(=O)c2ccc(Cl)cc2)[C@H](C)CN([C@@H](C)CO)C(=O)c2cc(N(C)C)ccc2O1	SIRT5 block 21 (no result: PDI turbidity)
O=S(=O)(Cc1ccccc1)NCC[C@@H]1CC[C@H](NS(=O)(=O)c2ccccc2)[C@@H](CO)O1	none (no result: PDI turbidity)
Cc1ccc(S(=O)(=O)N(C)C[C@H]2OCCCC[C@H](C)Oc3ccc(NS(=O)(=O)c4ccc(Cl)cc4)cc3C(=O)N([C@@H](C)CO)C[C@H]2C)cc1	SIRT5 block 26 (no result: PDI turbidity)
Cc1ccc(S(=O)(=O)N(C)C[C@@H]2OCCCC[C@@H](C)Oc3ccc(NS(=O)(=O)c4ccc(Cl)cc4)cc3C(=O)N([C@H](C)CO)C[C@@H]2C)cc1	none (no result: PDI turbidity)
Cc1ccc(-c2ccc3c(c2)O[C@@H](CN(C)CC2CCCC2)[C@H](C)CN([C@@H](C)CO)S3(=O)=O)cc1	none (no result: PDI turbidity)
CCN(CC(=O)Nc1cc(Cl)ccc1C)C(=O)COc1ccccc1F	FGF22 binding 44 (no result: UUG fidelity)
CCN(CC(=O)Nc1cc(Cl)ccc1C)C(=O)CCOc1ccccc1C	none (no result: FGF22 binding)
CCCCn1nc2cc(C(=O)NCc3cc(C(F)(F)F)cc(C(F)(F)F)c3)ccc2c1OCC	FGF22 binding 44
CCOc1c2ccc(C(=O)NCc3cc(C(F)(F)F)cc(C(F)(F)F)c3)cc2nn1CCOC	none (no result: SIRT5 block)
CO[C@H]1CN(C)C(=O)c2ccc(NS(C)(=O)=O)cc2OC[C@H](C)N(C(=O)C2CCCC2)C[C@@H]1C	none (no result: PDI turbidity)
COc1ccc(S(=O)(=O)Nc2ccc3c(c2)C(=O)N([C@H](C)CO)C[C@H](C)[C@H](CN(C)C(=O)c2ccccc2)OCCCC[C@H](C)O3)cc1	none (no result: PDI turbidity)
Cc1ccc(NC(=O)COCC(=O)Nc2ccc(F)cc2)cc1	SIRT5 block 24
O=C(C[C@@H]1CC[C@H]2[C@@H](COC[C@H](O)CN2C(=O)c2ccncc2)O1)NC1Cc2ccccc2C1	none (no result: PDI turbidity)
CC(=O)c1ccc(N2CCN(S(=O)(=O)c3cccc4nsnc34)CC2)cc1	FGF22 binding 43 (no result: UUG fidelity)
O=c1c(O)cccc2cc(O)c(O)c(O)c12	SIRT5 block 33
Cn1c(CNC(=O)c2ccco2)nnc1SCC(=O)Nc1c(F)cc(F)cc1Br	FGF22 binding 44 (no result: UUG fidelity)
Cn1c(CNC(=O)c2ccco2)nnc1SCC(=O)Nc1cccc(F)c1	none
C[C@H](O)C#Cc1cnc2c(c1)C(=O)N([C@H](C)CO)C[C@H](C)[C@@H](CN(C)Cc1cccc(C(=O)O)c1)O2	none (no result: PDI turbidity, SIRT5 block)
Cc1cc(C)n(-c2cccc(CN(C)Cc3nc(-c4cnccn4)no3)c2)n1	FGF22 binding 44
CN(Cc1nc(-c2cnccn2)no1)Cc1cccc2ccccc12	none
COCC(=O)N1C[C@H]2CON(C)[C@H]2C[C@H]1c1cccc(-c2ccccc2OC)c1	none
COc1ccccc1-c1cccc([C@@H]2C[C@H]3[C@H](CON3C)CN2C(=O)CCc2ccccc2)c1	SIRT5 block 17
CCC(=O)Nc1ccc2c(c1)C(=O)N(C)C[C@@H](OC)[C@@H](C)CN(Cc1ccccc1)[C@@H](C)CO2	none (no result: PDI turbidity)
CCN1CCN(C(=O)/C=C/c2ccccc2[N+](=O)[O-])CC1	none (no result: UUG fidelity)
O=C(/C=C/c1ccccc1[N+](=O)[O-])N1CCCCC1	FGF22 binding 43 (no result: UUG fidelity)
Cc1c(C(=O)C(=O)NCc2cccs2)c2ccccc2n1C	FGF22 binding 43 (no result: UUG fidelity)
COc1ccc(CCNC(=O)CCCn2c(=S)[nH]c3ccsc3c2=O)cc1OC	FGF22 binding 43 (no result: SIRT5 block)
COc1ccc(CCNC(=O)CCCNC(=O)Cn2cnc3sc(C)c(C)c3c2=O)cc1OC	FGF22 binding 44 (no result: UUG fidelity)
COc1ccc(CCNC(=O)Cn2ccc3c(OC)cccc3c2=O)cc1OC	SIRT5 block 21 (no result: UUG fidelity)
COc1ccccc1NC(=O)CCCNC(=O)Cn1cnc2sc(C)c(C)c2c1=O	none
COc1ccc(S(=O)(=O)N2CC[C@H]3[C@@H](CO)N(C)c4ccc(C5=CCCCC5)cc4[C@H]32)cc1	none (no result: PDI turbidity)
CC1CN(S(=O)(=O)c2ccc(CN3C(=O)c4cccnc4C3=O)s2)c2ccccc2O1 (stereo unspecified)	SIRT5 block 24
O=C(COC(=O)c1ccc2ccccc2n1)Nc1cccc(S(=O)(=O)NC2=NCCCCC2)c1	FGF22 binding 43 (no result: UUG fidelity)
O=C(COC(=O)c1ccc([N+](=O)[O-])s1)Nc1cccc(S(=O)(=O)NC2=NCCCCC2)c1	SIRT5 block 26 (no result: UUG fidelity)
CCc1nc2ccccc2c(C(=O)OCC(=O)Nc2cccc(S(=O)(=O)NC3=NCCCCC3)c2)c1C	none
C[C@@H]1CN([C@H](C)CO)S(=O)(=O)c2ccc(-c3ccncc3)cc2O[C@H]1CN(C)C(=O)c1ccc2c(c1)OCO2	none (no result: PDI turbidity)
Nc1ccc2c(c1)C(=O)c1ccc(Cl)cc1-2	none (no result: SIRT5 block)
Nc1ccc2c(c1)C(=O)c1cc(N)c(Cl)cc1-2	FGF22 binding 43 (no result: SIRT5 block)
CCC(C(=O)NCCCN1CC(C)CC(C)C1)n1nc(C)c2sc3ccccc3c2c1=O (stereo unspecified)	SIRT5 block 31
CCCN1CCN(CCCNC(=O)C(CC)n2nc(C)c3sc4ccccc4c3c2=O)CC1 (stereo unspecified)	S100A4 inh HTS 113
